# Assay results published in US20090263852A1, “NONAPOPTOTIC FORMS OF CELL DEATH AND METHODS OF MODULATION” (priority 2000, published 2009).
# Entries after “also recorded” stand apart in the source; their conditions may differ.
# Tested on: IGFIR-IC transfected 293T cells
# Experiment: IGFIR-IC-induced cell death (paraptosis) in transfected 293T cells, trypan blue exclusion
# Type: cell-based
# Conditions: 0.5 mg pIGFIR-IC cotransfected with 1.5 mg construct
# Procedure: Transient transfections used Lipofect-Amine (GIBCO, BRL, Rockville, Md.) according to the manufacturer's instructions. Briefly, 1×10^6 293T cells were seeded in 6 cm dishes, and transfected the next day using a ratio of DNA:Lipofect-Amine of 1 μg:5 μl. Transfection efficiency was 60-80% for 293T, as determined by X-gal staining after transfection of a b-galactosidase construct.
# Following expression of the IGIFR-IC constructs, the cell cultures were assayed for cell death. Cell death was assessed by trypan blue exclusion. Floating cells were collected at the indicated times after transfection, by centrifugation for 10 minutes at 1500 rpm. […] Dead cells were counted by 4 independent hemocytometer counts. […]
# To assess IGFIR-induced cell death following treatment with Actinomycin D and cycloheximide, both drugs were obtained form Sigma and added to IGFIR-IC transfected 293T cells. […] Floating cells were collected 24 hrs after the removal of the drugs and dead cells were counted in the presence of trypan blue.
# To assess whether caspase-9 has a functional role in IGFIR-induced cell death 293T cells were transfected with 2 μg of DNA consisting of either pcDNA3, 0.5 μg pIGFIR-IC+1.5 μg pcDNA3 (Invitrogen, Carlsbad, Calif.), or 0.5 μg pIGFIR-IC+1.5 μg dominant negative caspase-9 (pC9DN) or dominant negative caspase-7 (pC7DN) expression constructs. 48 hours after transfection, dead cells were counted. […]
substance,measurement,value
"xiap: X-chromosome-linked inhibitor of apaoptosis, cotransfected as expression construct",inhibition of IGFIR-IC-induced cell death by cotransfection,Neither the administration of the caspase inhibitor BAF at 50 mM (A) nor the cotransfection of xiap (B) or Bcl-xL (C) were effective; also recorded: neither
